Consider 84 compounds from the OPERA property sets (Mansouri et al. 2018).

The conditions of the first data set: experimental values compiled from the literature.
As usually defined, the melting point is the temperature, or range, at which the solid turns liquid. Turning to `CN(c1c([N+](=O)[O-])cc([N+](=O)[O-])cc1[N+](=O)[O-])[N+](=O)[O-]`, the melting point was found to be 132 °C.
Compound `CCOP(=S)(CC)Oc1cc(Cl)c(Cl)cc1Cl` (stereo not given) came in with a log10 Koc (L/kg) of 2.6 and a log10 vapour pressure (mmHg) of -4.82.
For the compound `CC([N+](=O)[O-])([N+](=O)[O-])[N+](=O)[O-]`, the melting point came out at 57 °C.
Same read-out and setting: under `O=[N+]([O-])OC[C@H](O[N+](=O)[O-])[C@@H](CO[N+](=O)[O-])O[N+](=O)[O-]` stands 61 °C.
As a reminder, the boiling point is the temperature at which the vapour pressure of the liquid equals the pressure above it. On to `O=[N+]([O-])C(Cl)(Cl)[N+](=O)[O-]`, for which the boiling point came out at 122 °C.
Turning to `CCOP(C)(=O)OCC`, the boiling point came to 194 °C and the log10 vapour pressure (mmHg) was -1.88.
Take `CC(CO)O[N+](=O)[O-]` (stereo not given): the log10 Henry constant (atm·m³/mol) was -6.65.
`COc1ccc([N+](=O)[O-])cc1[N+](=O)[O-]` showed a melting point of 94.5 °C.
Turning to `CC[AsH]CC`, the boiling point amounted to 105 °C.
`CC([N+](=O)[O-])[N+](=O)[O-]` returned a boiling point of 186 °C.
`CCOP(=O)(OCC)N(C)C` displayed a boiling point of 232 °C and a melting point of 8.3 °C.
Take `COP(C)(=O)OC`: the boiling point was determined as 181 °C and the log10 vapour pressure (mmHg) was -0.0168.
As for `O=[N+]([O-])c1ccc(O)c([N+](=O)[O-])c1O`, the melting point came out at 148 °C.
As to `C1CN1`, the log10 Koc (L/kg) is 0.78 and the log10 vapour pressure (mmHg) stood at 2.33.
`COC(=O)N(C)C(=O)CSP(C)(=S)OC` (stereo not given): the melting point is 36 °C.
`O=[N+]([O-])c1cccc([N+](=O)[O-])c1O` had a melting point of 63.5 °C.
For `CCN(CC)CCCl.Cl`, the melting point came out at 209 °C.
With `O=C(Cl)Oc1ccccc1`, the log10 vapour pressure (mmHg) is -0.249.
Regarding `CCCOC(=O)Cl`, the log10 vapour pressure (mmHg) was determined as 1.3.
`O=[N+]([O-])OCCO` displayed a log10 Henry constant (atm·m³/mol) of -7.59.
Compound `C=CCOC(=O)Cl` yielded a log10 vapour pressure (mmHg) of 1.3.
`Cc1cc([N+](=O)[O-])ccc1[N+](=O)[O-]` showed a boiling point of 284 °C and a melting point of 52.5 °C.
Turning to `O=[N+]([O-])c1cc([N+](=O)[O-])c(O)c([N+](=O)[O-])c1O`, the melting point came to 176 °C.
For the compound `O=[N+]([O-])C(Cl)([N+](=O)[O-])[N+](=O)[O-]`, the melting point is 4.5 °C.
On to `Cc1cc([N+](=O)[O-])cc([N+](=O)[O-])c1O`, for which the log10 Henry constant (atm·m³/mol) was -5.85, the log10 Koc (L/kg) turned out to be 2.41, the log10 vapour pressure (mmHg) is -3.92 and the ready biodegradability entry is recorded as “not readily biodegradable”.
With `Cc1cc([N+](=O)[O-])c([N+](=O)[O-])cc1[N+](=O)[O-]`, the boiling point was determined as 300 °C and the melting point is 104 °C.
Turning to `CCOC(=O)Cl`, the log10 vapour pressure (mmHg) is 1.35 and the ready biodegradability result is “readily biodegradable”.
Take `Cc1ccc([N+](=O)[O-])c([N+](=O)[O-])c1[N+](=O)[O-]`: the boiling point is 301 °C and the melting point was 112 °C.
`CCCN(CCC)CCO` gave a boiling point of 196 °C.
Take `CCOP(C)(=S)OCC`: the boiling point came to 199 °C and the melting point is -84.4 °C.
For `CC(C)N(CCO)C(C)C`, the boiling point is 190 °C, the log10 vapour pressure (mmHg) was -1.1 and the melting point is -39 °C.
On to `ClP(Cl)c1ccccc1`, for which the ready biodegradability result was “not readily biodegradable”.
Compound `Cc1c([N+](=O)[O-])cc([N+](=O)[O-])c(O)c1[N+](=O)[O-]` displayed a melting point of 110 °C.
Turning to `O=C1C2CC=CCC2C(=O)N1SC(Cl)(Cl)C(Cl)Cl` (stereo not given), the log10 Koc (L/kg) came out at 3.32 and the ready biodegradability result is recorded as “not readily biodegradable”.
In turn, `CN(C)CCCl` returned a boiling point of 110 °C.
`Nc1cc([N+](=O)[O-])cc([N+](=O)[O-])c1O` registered a melting point of 169 °C.
Regarding `O=[N+]([O-])c1cc([N+](=O)[O-])c(Cl)c([N+](=O)[O-])c1`, the melting point was determined as 83 °C.
As for `CC(O)C(C)(C)C` (stereo not given), the boiling point stood at 120 °C and the melting point was 4.8 °C.
As for `O=C(O)C(O)(c1ccccc1)c1ccccc1`, the melting point was determined as 151 °C and the ready biodegradability result is reported as “not readily biodegradable”.
On to `ClCCN(CCCl)c1ccccc1`, for which the melting point turned out to be 45 °C.
For the compound `CCOP(=O)(CC)OCC`, the boiling point is 198 °C and the log10 vapour pressure (mmHg) was -1.14.
`O=[N+]([O-])c1ccccc1[N+](=O)[O-]`: the log10 vapour pressure (mmHg) was -4.34 and the ready biodegradability result is “not readily biodegradable”.
For the compound `OCCF`, the log10 vapour pressure (mmHg) is 1.33.
Take `CO[N+](=O)[O-]`: the boiling point stood at 64.6 °C and the melting point was -82.5 °C.
Regarding `O=[N+]([O-])N1CN([N+](=O)[O-])CN([N+](=O)[O-])C1`, the log10 vapour pressure (mmHg) is -8.39 and the melting point turned out to be 206 °C.
`CCCCC(CC)CO[PH](=O)OCC(CC)CCCC` (stereo not given) registered a log10 vapour pressure (mmHg) of -4.24.
`CC(O)CO[N+](=O)[O-]` (stereo not given) came in with a log10 Henry constant (atm·m³/mol) of -7.04.
Take `Cc1ccc([N+](=O)[O-])cc1[N+](=O)[O-]`: the boiling point came to 300 °C, the log10 Henry constant (atm·m³/mol) was -7.27, the log10 vapour pressure (mmHg) is -3.83 and the melting point came to 71 °C. For the same compound, the ready biodegradability entry is “not readily biodegradable”.
Compound `C[AsH2]` showed a boiling point of 2 °C and a melting point of -143 °C.
As for `CC(C)O[N+](=O)[O-]`, the boiling point turned out to be 100 °C, the log10 Henry constant (atm·m³/mol) is -2.79 and the log10 vapour pressure (mmHg) worked out at 1.53.
Compound `Nc1c([N+](=O)[O-])cc([N+](=O)[O-])cc1[N+](=O)[O-]` registered a melting point of 194 °C.
`N=C(NN)N[N+](=O)[O-]`: the melting point was determined as 185 °C.
In turn, `Cc1cccc([N+](=O)[O-])c1[N+](=O)[O-]` showed a boiling point of 284 °C and a melting point of 60 °C.
For `N=C(N)N[N+](=O)[O-]`, the ready biodegradability result is “not readily biodegradable”.
Consider `O=[N+]([O-])c1cc([N+](=O)[O-])cc([N+](=O)[O-])c1`, for which the boiling point is 315 °C, the log10 vapour pressure (mmHg) was -5.19 and the melting point amounted to 122 °C.
On to `CCOP(=S)(CC)Sc1ccccc1` (stereo not given), for which the log10 Koc (L/kg) was 2.94 and the log10 vapour pressure (mmHg) is -3.47.
Turning to `CP(=O)(O)O`, the melting point is 108 °C.
The same measure, in the same setting: for `ClP1Oc2ccccc2O1` the value was 30 °C.
`O=[N+]([O-])N1CN([N+](=O)[O-])CN([N+](=O)[O-])CN([N+](=O)[O-])C1` displayed a log10 vapour pressure (mmHg) of -13.5.
For the compound `CN(C)[N+](=O)[O-]`, the boiling point was 187 °C, the log10 vapour pressure (mmHg) is -0.443 and the melting point came to 58 °C.
Compound `O=[N+]([O-])OCC(CO[N+](=O)[O-])(CO[N+](=O)[O-])CO[N+](=O)[O-]` came in with a log10 vapour pressure (mmHg) of -8.26 and a melting point of 140 °C.
`C[PH](=O)O`: the boiling point was found to be 163 °C and the melting point was -40 °C.
As to `CCCCOC(=O)Cl`, the log10 vapour pressure (mmHg) came to 0.816.
Compound `O=P(Cl)(Cl)Oc1ccccc1` gave a log10 vapour pressure (mmHg) of -1.28.
As to `O=[N+]([O-])c1ccc(O)cc1[N+](=O)[O-]`, the melting point turned out to be 134 °C.
As to `O=[N+]([O-])C(Br)([N+](=O)[O-])[N+](=O)[O-]`, the melting point was determined as 17.5 °C.
`Cc1c([N+](=O)[O-])cccc1[N+](=O)[O-]` showed a boiling point of 300 °C, a log10 vapour pressure (mmHg) of -3.25 and a melting point of 66 °C.
As for `Cc1ccc([N+](=O)[O-])c([N+](=O)[O-])c1`, the boiling point was found to be 284 °C, the melting point came out at 58.3 °C and the ready biodegradability entry was “not readily biodegradable”.
Regarding `O=C1c2cc([N+](=O)[O-])ccc2-c2c1cc([N+](=O)[O-])cc2[N+](=O)[O-]`, the melting point came to 176 °C.
Take `O=[N+]([O-])c1cccc([N+](=O)[O-])c1`: the boiling point came to 291 °C, the log10 Henry constant (atm·m³/mol) is -7.31, the log10 vapour pressure (mmHg) is -3.05 and the melting point came to 90 °C. The ready biodegradability entry is on record as “not readily biodegradable”.
In turn, `CP(=O)(Oc1ccccc1)Oc1ccccc1` gave a melting point of 35 °C.
For `O=[N+]([O-])OCCOCCO[N+](=O)[O-]`, the log10 vapour pressure (mmHg) was -2.23 and the melting point was -11.3 °C.
For `O=[N+]([O-])c1ccc([N+](=O)[O-])c(O)c1`, the log10 vapour pressure (mmHg) is -3.91.
`O=[N+]([O-])C([N+](=O)[O-])[N+](=O)[O-]` returned a melting point of 15 °C.
With `CCN(CC)CCCl`, the boiling point came to 146 °C and the melting point stood at 210 °C.
`Cc1cc([N+](=O)[O-])c(O)c([N+](=O)[O-])c1` showed a log10 Henry constant (atm·m³/mol) of -7.28.
`CC(C)COC(=O)Cl` registered a log10 vapour pressure (mmHg) of 0.922.
Regarding `Cc1c([N+](=O)[O-])cc([N+](=O)[O-])cc1[N+](=O)[O-]`, the log10 vapour pressure (mmHg) is -5.1 and the melting point came to 80.1 °C.
Turning to `Cc1cc([N+](=O)[O-])cc([N+](=O)[O-])c1`, the boiling point is 315 °C, the log10 vapour pressure (mmHg) was -3.39 and the melting point is 93 °C.
On to `CC(CO[N+](=O)[O-])O[N+](=O)[O-]` (stereo not given), for which the log10 vapour pressure (mmHg) was -0.422.
For `CC(C)OP(C)(=O)OC(C)C`, the log10 vapour pressure (mmHg) is -0.557.
Regarding `Cc1cc([N+](=O)[O-])c(N(CCCl)CCCl)c([N+](=O)[O-])c1`, the log10 Koc (L/kg) turned out to be 3.94.
`COP(=S)(Cl)OC` registered a log10 vapour pressure (mmHg) of -0.301.
For `CC(=O)OOC(C)(C)C`, the ready biodegradability entry is recorded as “not readily biodegradable”.

Still in this data set, the particulars now being: fish.
`Nc1cc([N+](=O)[O-])cc([N+](=O)[O-])c1O` had a log10 BCF of 0.47.
As for `O=C(O)C(O)(c1ccccc1)c1ccccc1`, the log10 BCF is 0.26.
`O=[N+]([O-])N1CN([N+](=O)[O-])CN([N+](=O)[O-])C1` registered a log10 BCF of 0.3.
With `Cc1ccc([N+](=O)[O-])cc1[N+](=O)[O-]`, the log10 BCF was determined as 0.96 and the log10 biotransformation half-life (days) is -0.22.
As for `O=[N+]([O-])N1CN([N+](=O)[O-])CN([N+](=O)[O-])CN([N+](=O)[O-])C1`, the log10 BCF was -0.3.
Turning to `Cc1c([N+](=O)[O-])cccc1[N+](=O)[O-]`, the log10 BCF was found to be 1.34.
`Cc1ccc([N+](=O)[O-])c([N+](=O)[O-])c1` displayed a log10 BCF of 0.48 and a log10 biotransformation half-life (days) of -1.4.
`O=[N+]([O-])c1cccc([N+](=O)[O-])c1` yielded a log10 BCF of 0.77.
Compound `Cc1c([N+](=O)[O-])cc([N+](=O)[O-])cc1[N+](=O)[O-]` had a log10 BCF of 0.99.
